In general, IC50 refers to the concentration that gives 50% inhibition.

Test [1] deals with HER2/neu-overexpressing human breast cancer BT474 cells. Put plainly: cytotoxicity of herceptin delivered by hydrogels (MTT). The class given is cell-based. The following applies: 120 hours treatment; herceptin concentration.
The subject of test [2] is BT474-tumor bearing mouse model. Put plainly: in vivo anti-tumor efficacy. On the set-up: species or system mice. The settings on record: 4×10 mg/kg weekly. The procedure:
Female BALB/c nude mice, weighing 18 g to 22 g were injected subcutaneously with 200 microliters of a cell suspension (1:1 with Matrigel) (BD Biosciences, U.S.A.) containing 5×10^6 BT474 cells. Three weeks after inoculation (when the tumor volume was 100 mm^3 to 120 mm^3), the tumor-bearing mice were randomly divided into several groups (7 to 10 mice per group). […] All mice were injected only once on the first day of treatment (Day 0). […] The tumor size was measured by calipers in two orthogonal diameters and the volume was calculated as L×W2/2, where L and W are the major and minor diameters respectively. At the end of the treatment, a two-tailed Student's t test was used to statistically evaluate the difference in tumor volume and P≦0.05 was considered to indicate a statistically significant difference. In addition, the toxicities of the different formulations were evaluated by monitoring the change in mouse body weight over the course of treatment.

A further test has as its system BT474-tumor bearing mice. The class given is in vivo. The settings on record: 28 days after one injection, 30 mg/kg, regardless of formulation. The source says:
For histological examination, the samples were fixed in 4% neutral buffered formalin and then stained with hematoxylin/eosin (H&E) using standard techniques. Apoptotic cells of tumor samples were identified using Terminal Transferase dUTP Nick-End Labeling (TUNEL) assay. The slides were counterstained with hematoxylin to visualize nuclei and examined using a stereomicroscope (Nikon, U.S.A.).

Some results are limits rather than exact numbers.

For the substance “herceptin: recombinant humanized mAb that selectively binds HER2 (Mw 145.5 kDa, Roche); solutions in HPLC grade water”, the IC50 in test [1] was < 5 µg/mL. Also, the “tumor shrinkage by the end of the treatment” value in test [2] (intravenous, P=0.001) came out at 32%. The “tumor size over course of treatment” value in test [2] (subcutaneous, ~4 cm from tumor) is reported as “remained similar in size”. In addition, the “TUNEL staining of tumor cells” value with BT474-tumor bearing mice is “mostly apoptotic”.

(Values after patent US9637592B2, “Vitamin functionalized gel-forming block copolymers for biomedical applications” (International Business Machines Corporation, priority 2013, dated 2017).)
